For the experiment, the target named is Neuronal acetylcholine receptor subunit alpha-4 (Gallus gallus, UniProt P09482+P09484). The experiment is described as follows: Binding affinity to recombinant Gallus gallus (chicken) alpha4beta2 nicotinic acetylcholine receptor assessed as [3H]NIC binding by radioligand binding assay.

Protein sequences, listed by entry. Tags and fused reporters are not part of them. Lines headed by an entry give the natural chain unless they say otherwise; changes in a name come on top.
UniProt P09482: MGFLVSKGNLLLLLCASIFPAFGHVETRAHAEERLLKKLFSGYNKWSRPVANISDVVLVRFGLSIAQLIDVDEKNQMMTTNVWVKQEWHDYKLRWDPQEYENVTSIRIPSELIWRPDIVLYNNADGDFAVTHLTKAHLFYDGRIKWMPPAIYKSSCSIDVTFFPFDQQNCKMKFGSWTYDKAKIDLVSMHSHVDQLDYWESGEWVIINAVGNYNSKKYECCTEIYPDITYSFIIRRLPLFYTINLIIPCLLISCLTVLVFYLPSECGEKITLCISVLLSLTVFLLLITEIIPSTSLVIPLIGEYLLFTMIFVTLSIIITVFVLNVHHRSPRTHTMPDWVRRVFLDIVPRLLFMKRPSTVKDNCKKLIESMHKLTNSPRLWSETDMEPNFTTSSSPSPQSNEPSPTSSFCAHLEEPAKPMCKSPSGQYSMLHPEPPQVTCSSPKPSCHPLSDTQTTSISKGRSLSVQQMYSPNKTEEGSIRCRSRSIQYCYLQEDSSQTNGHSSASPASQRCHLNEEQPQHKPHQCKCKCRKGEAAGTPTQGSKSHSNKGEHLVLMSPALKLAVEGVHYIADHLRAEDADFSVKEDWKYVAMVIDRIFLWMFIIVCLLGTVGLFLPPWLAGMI
UniProt P09484: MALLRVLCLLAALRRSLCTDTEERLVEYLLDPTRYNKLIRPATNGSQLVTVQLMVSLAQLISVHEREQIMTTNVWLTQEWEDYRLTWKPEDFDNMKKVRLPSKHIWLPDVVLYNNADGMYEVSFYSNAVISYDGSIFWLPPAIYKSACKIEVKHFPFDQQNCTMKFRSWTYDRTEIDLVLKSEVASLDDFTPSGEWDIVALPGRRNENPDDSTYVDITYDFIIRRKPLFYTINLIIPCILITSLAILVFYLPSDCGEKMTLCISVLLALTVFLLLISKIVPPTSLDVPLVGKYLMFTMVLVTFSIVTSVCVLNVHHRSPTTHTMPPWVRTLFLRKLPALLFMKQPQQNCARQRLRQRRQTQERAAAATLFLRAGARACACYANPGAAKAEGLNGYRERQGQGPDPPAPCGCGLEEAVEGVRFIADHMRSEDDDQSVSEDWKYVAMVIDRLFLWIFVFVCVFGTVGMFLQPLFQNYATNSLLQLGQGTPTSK

Usually Ki stands for the equilibrium dissociation constant of an inhibitor or competing ligand from its target.

Turning to `Clc1ccc(C2CC3CCC2N3)cn1` (racemic) [EPIBATIDINE], the Ki was found to be 0.01 nM.

Values taken from ChEMBL document CHEMBL3045824, “Unique neonicotinoid binding conformations conferring selective receptor interactions” (J Agric Food Chem, 2011).
